# uPA generation = blocks generation of uPA at the cell surface | cell surface uPA generation assay, qHTS | Potency, µM (top dose mostly 38.3 µM), for inactives: top-dose activity change, negative = inhibition, hits mostly inhibitors | 0.31% of 330,000 active; active means well fitted inhibition curve with a large enough effect; inconclusive means small, poorly fitted or top-dose-only effect; inactive means no such curve, though single readings can be large or run the other way; tested in mouse RAW 264.7 cells; further: potency means the concentration at half of the fitted maximal effect; on the % scale 0 is the no-effect control and ±100 the full control effect; nearly all actives have a fitted effect of over 55% in size
# DT40 TDP1 no CPT = qHTS for Inhibitors of human tyrosyl-DNA phosphodiesterase 1 (TDP1): qHTS in cells in absence of CPT. DT40 Tdp1-/- hTDP1 cells, no CPT, ATP luminescence, 48 h. Potency, µM (top dose mostly 46.2 µM), without a hit: at the highest dose activity change, negative = growth inhibition, most hits filed as inhibitors. 15% of 420,000 active. AID 686978, 2013; further: potency means the concentration at half of the fitted maximal effect; on the % scale 0 is the no-effect control and ±100 the full control effect; nearly all actives have a fitted effect of over 55% in size
#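 Stably hTDP1-transfected Tdp1-null chicken DT40 cells were treated with library compounds minus camptothecin and grown for at least 48 hr at 37 °C, after which cellular ATP was quantified by luminescence.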
# DT40 TDP1 CPT = DT40-hTDP1 cell growth loss with CPT; chicken DT40 Tdp1-/-;hTDP1 cells + 20 nM CPT, ATP luminescence, 48 h; 12% of 420,000 active; Potency, µM (doses to about 46.2 µM), for the others: at the top dose activity change, negative = growth inhibition, hits mostly inhibitors; further: potency means the concentration at half of the fitted maximal effect; on the % scale 0 is the no-effect control and ±100 the full control effect; nearly all actives have a fitted effect of over 55% in size
#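 Chicken DT40 Tdp1-/- cells stably complemented with human TDP1 were seeded at 400 cells/well in medium containing 20 nM camptothecin, exposed to pin-transferred compounds, and grown at 37 °C for at least 48 hr. Viability was read as ATP luminescence.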
# TDP1 inh = blocks human tyrosyl-DNA phosphodiesterase 1; recombinant TDP1, AlphaScreen DNA substrate cleavage; Potency, µM (series often up to 130 µM), for inactives: at the highest dose activity change, negative = inhibition, hits mostly inhibitors; 0.28% of 350,000 active; further: potency means the concentration at half of the fitted maximal effect; on the % scale 0 is the no-effect control and ±100 the full control effect; nearly all actives have a fitted effect of over 40% in size
#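 E. coli-derived human Tdp1, 1 nM final. Cpd preinc 15 min RT; substrate 15 nM final, 5 min RT; AS bead mix 10 ug/ml final, 10 min RT. Signal loss = tyrosine-FITC cleavage. No-enzyme wells = max signal.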
# miR-21 reporter = miR-21 reporter, rising signal; HeLa miR-21 FLuc reporter, luciferase, 48 h; Potency, µM (doses to about 38.3 µM), for inactives: at the highest dose reporter change, positive = more light; 340,000 tested, under 10 active; AID 2288; active = well fitted rising curve with a large enough effect; inconclusive = small, poorly fitted or top-dose-only effect; inactive = no such curve, though single readings can be large or run the other way;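 further: % of control where 0% means no effect; miR-21 action dims this reporter so a rising signal means less miR-21 action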
#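 HeLa cells endogenously expressing miR-21, stably carrying CMV-driven firefly luciferase with a downstream miR-21 binding site, 2000 cells/well. Titrations up to approximately 40 uM, 48 hours; luciferase luminescence read.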
# * = called active by the depositor; ? = inconclusive; nt = not tested or not shown; ! = not active in a repeat; [ ] = another dose, or the depositor's remark. Sampled rows, rich in hits. Any-hit rate of the full collection: about 16%. Unless noted, the call rests on the fitted dose curve; in most records, active means well fitted curve in the direction sought with a large enough effect; inconclusive means small, poorly fitted or top-dose-only effect, or another doubt; inactive means no such curve, though single readings can be large; an effect the other way counts as inactive or inconclusive.
entry	Compound	uPA generation	DT40 TDP1 no CPT	DT40 TDP1 CPT	TDP1 inh	miR-21 reporter
1	CCOC(=O)c1c(C)[nH]c(C)c1S(=O)(=O)N1CCC(C(=O)Nc2cc(C)ccn2)CC1	nt	9.8%	19.8%	5.3%	-11.3%
2	Nc1cc[n+](CC(=O)c2ccccc2)cc1	-2.4%	?	?	nt	0.6%
3	O=C(Cn1cc[n+](CC(=O)c2ccccc2)c1)c1ccccc1	-2.4%	4.11µM*	8.2µM*	9.3%	-3.4%
4	O=C(Cn1cc[n+](CC(=O)c2ccc(Cl)cc2Cl)c1)c1ccc(Cl)cc1Cl	9.4%	25.9µM*	?	-1.4%	16.3%
5	Cc1ccccc1C(=O)NC(CC(C)C)C(=O)Nc1ccc(F)c([N+](=O)[O-])c1 (stereo unspecified)	3.0%	?	-18.7%	0.6%	1.5%
6	Cc1sc2nc(CSc3nnnn3-c3ccc(Cl)cc3)[nH]c(=O)c2c1C	1.5%	16.4µM*	?	2.6%	-15.1%
7	COCCn1c(Cc2ccccc2)nnc1SCc1nc2ccccc2c(=O)[nH]1	-3.5%	16.4µM*	?	1.0%	0.6%
8	CCn1c(SCc2nc3ccccc3c(=O)[nH]2)nc2ccccc21	2.4%	20.6µM*	?	0.5%	-9.1%
9	CCn1c(SCc2nc3sc(C(=O)O)c(C)c3c(=O)[nH]2)nnc1-c1ccc(Cl)cc1	-0.5%	11.1%	-1.8%	0.0%	-2.4%
10	CCCn1c(SCc2nc3sc(C)c(C)c3c(=O)[nH]2)nc2ccccc2c1=O	1.7%	14.6µM*	?	1.0%	-7.1%
11	Cc1ccc2c(C)ccnc2c1	nt	7.08µM*	10µM*	nt	nt
12	Cc1cccc(OC(=O)c2ccc3nccnc3c2)c1	6.8%	-0.5%	0.9%	-7.0%	-3.0%
13	O=C(Oc1ccc(Cl)cc1)c1ccc2nccnc2c1	5.8%	-15.0%	4.3%	1.9%	-0.1%
14	Cc1ccc2nccnc2c1	nt	3.16µM*	3.55µM*	nt	nt
15	Clc1ccc2nccnc2c1	nt	0.794µM*	1µM*	nt	nt
16	CCOC(=O)CN(C(=O)c1snc(C(N)=O)c1N)C(C(=O)NCCC(C)C)c1ccc(F)cc1 (stereo unspecified)	14.2%	-1.6%	5.9%	nt	1.4%
17	COc1cc(-c2nnc(COC(=O)C3c4ccccc4Oc4ccccc43)o2)cc(OC)c1OC	2.5%	?	?	4.2%	2.1%
18	COc1ccc(C2=C(C=C(C#N)C#N)C(c3ccccc3C)c3ccccc3O2)cc1OC (stereo unspecified)	-4.5%	20.6µM*	?	8.2%	-1.3%
19	CNC(=O)CCCN1C(=O)c2ccccc2Sc2ncccc21	5.1%	5.9%	-1.9%	nt	-3.5%
20	CCc1cccc(N(C)C(N)=Nc2cccc3ccccc23)c1	20.4%	15µM*!	10.6µM*!	nt	6.4%
21	O=C(NCCc1ccc(O)c(O)c1)C1COc2ccccc2O1 (stereo unspecified)	-8.5%	?	13µM*	9.0%[0.0935 µM]	-4.1%
22	O=[N+]([O-])c1cc(C(F)(F)F)c(Cl)cc1N1CCN(CCO)CC1	2.6%	?	-18.2%	2.7%	-7.0%
23	COc1ccc(OC)c(CCNC(=O)c2cc3c(s2)-c2c(C)cccc2OC3)c1	nt	7.31µM*	11.6µM*	-8.8%	-10.3%
24	CCN1CCN(C(=O)c2cc3c(s2)-c2c(C)cccc2OC3)CC1	?	?	?	nt	-58.4%
25	Cc1cccc2c1-c1sc(C(=O)NCCCN3CCN(c4cccc(Cl)c4)CC3)cc1CO2	nt	?	23.1µM*	5.9%	?
26	CCN1CCN(CCCNC(=O)c2cc3c(s2)-c2c(C)cccc2OC3)CC1	nt	5.8µM*	4.61µM*	-2.9%	28.5%
27	COc1ccc(CCNC(=O)c2cc3c(s2)-c2c(C)cccc2OC3)c(OC)c1	nt	?	?	-3.9%	-2.9%
28	CCN(C(=O)c1cc2c(s1)-c1c(C)cccc1OC2)c1ccccc1F	nt	20.6µM*	20.6µM*	nt	-23.3%
29	CCOC(=O)C1CCCN(C(=O)C(=O)Nc2ccc3nc4n(c(=O)c3c2)CCCCC4)C1 (stereo unspecified)	-5.4%	-28.3%	?	nt	9.6%
30	CCCN(C(=O)c1cc2c(s1)-c1ccccc1SC2)c1ccccc1F	nt	16.4µM*	?	-10.1%	21.7%

# Some of the entries so far, with values under each structure:
# Order of results: uPA generation | DT40 TDP1 no CPT | DT40 TDP1 CPT | TDP1 inh | miR-21 reporter
21	O=C(NCCc1ccc(O)c(O)c1)C1COc2ccccc2O1 (stereo unspecified)
 : -8.5% | ? | 13µM* | 9.0%[0.0935 µM] | -4.1%
22	O=[N+]([O-])c1cc(C(F)(F)F)c(Cl)cc1N1CCN(CCO)CC1
 : 2.6% | ? | -18.2% | 2.7% | -7.0%
23	COc1ccc(OC)c(CCNC(=O)c2cc3c(s2)-c2c(C)cccc2OC3)c1
 : nt | 7.31µM* | 11.6µM* | -8.8% | -10.3%
24	CCN1CCN(C(=O)c2cc3c(s2)-c2c(C)cccc2OC3)CC1
 : ? | ? | ? | nt | -58.4%
25	Cc1cccc2c1-c1sc(C(=O)NCCCN3CCN(c4cccc(Cl)c4)CC3)cc1CO2
 : nt | ? | 23.1µM* | 5.9% | ?
26	CCN1CCN(CCCNC(=O)c2cc3c(s2)-c2c(C)cccc2OC3)CC1
 : nt | 5.8µM* | 4.61µM* | -2.9% | 28.5%

# More compounds
entry	Compound	uPA generation	DT40 TDP1 no CPT	DT40 TDP1 CPT	TDP1 inh	miR-21 reporter
31	CCCN(C(=O)c1cc2c(s1)-c1ccccc1OC2)c1ccccc1F	nt	nt	nt	-10.7%	4.9%
32	Cc1cccc2c1-c1sc(C(=O)Nc3ccccc3N3CCN(C)CC3)cc1CO2	1.6%	18.4µM*	18.4µM*	2.6%	8.2%
33	Cc1cccc2c1-c1sc(C(=O)NCCCN3CCN(c4ccccc4F)CC3)cc1CO2	nt	6.51µM*	?	2.0%	0.1%
34	Cc1nn(C(=O)c2ccc(Cl)cc2)c(C)c1Sc1ccc(Cl)cc1	nt	?	?	-1.3%[12.3 µM]	20.7%
35	CC(=O)Nc1nonc1-c1nnc(SCC(=O)Nc2cc(Cl)ccc2C)n1C	nt	-26.0%	-20.4%	3.6%	11.9%
36	COc1ccc(NC(=O)c2ccco2)cc1NC(=O)COc1ccccc1Cl	nt	?	6.51µM*	3.2%	-2.3%
37	COc1ccc(NC(=O)c2ccco2)cc1NC(=O)C(C)Oc1ccc(Cl)cc1Cl (stereo unspecified)	nt	6.51µM*	9.2µM*	8.4%	?
38	COc1ccc(NC(=O)c2ccco2)cc1NC(=O)C(C)(C)Oc1ccc(Cl)cc1	nt	?	18.4µM*	7.1%	3.0%
39	COc1ccc(NC(=O)c2ccco2)cc1NC(=O)c1ccco1	-1.6%	-8.2%	-19.9%	-1.0%	-8.1%
40	CCOC(=O)c1c(O)cc(OC)cc1CCc1ccccc1	-2.1%	-18.9%	-17.7%	nt	nt
41	COc1ccccc1/C=C/C(=O)OCC(=O)Nc1ccc(Cl)cn1	1.8%	7.2%	5.8%	-2.6%	4.3%
42	O=C(NCCNc1nccc(C(F)(F)F)n1)c1cccs1	3.9%	-10.0%	-6.5%	-1.2%	-9.5%
43	COC(=O)c1cc(C)nc(Nc2nc(C(N)Cc3ccc(F)cc3)cs2)n1 (stereo unspecified)	nt	-25.0%	?	nt	nt
44	NC(Cc1ccccc1)c1csc(Nc2nccc(C(F)(F)F)n2)n1 (stereo unspecified)	nt	20.6µM*	16.4µM*	nt	nt
45	NC(Cc1ccc(F)cc1)c1csc(Nc2nccc(C(F)(F)F)n2)n1 (stereo unspecified)	nt	14.6µM*	?	nt	nt
46	Cc1cc(C)nc(Nc2nc(C(N)Cc3ccccc3)cs2)n1 (stereo unspecified)	nt	5.17µM*	5.8µM*	nt	nt
47	CC[C@H](C)[C@H](NC(=O)[C@@H]1CCCN1C(=O)[C@H](C)NC(=O)[C@H](CC(N)=O)NC(=O)[C@@H]1CCCN1C(=O)[C@@H]1CCCN1C(=O)[C@H](CCCN=C(N)N)NC(=O)[C@H](Cc1ccc(O)cc1)NC(=O)[C@H](C)NC(=O)[C@@H]1CCCN1C(=O)[C@@H]1CCCN1C(=O)[C@@H](N)[C@@H](C)O)C(=O)N[C@@H](CC(C)C)C(=O)O	nt	nt	nt	8.2%	nt

# High-throughput results from PubChem.
